# Results taken from US9278124B2, “Hypoxia and hyaluronan and markers thereof for diagnosis and monitoring of diseases and conditions and related methods” (dated 2016).
# Assays:
# [1] = in particular at pH 3 to 8; cited from earlier work
# cancer cell lines = settings: cited from earlier work
# BxPC-3 peritibial tumors [2] = experiment: Tumor hypoxia (pimonidazole), PEGPH20 and gemcitabine study in BxPC-3 peritibial tumors; settings: PEGPH20 4.5 mg/kg at 0 and 66 h; gemcitabine 240 mg/kg ip at 24 h; 72 h; control 5.71±3.66%
# BxPC-3 peritibial tumors [3] = experiment: BrdU proliferation index, PEGPH20 and gemcitabine study in BxPC-3 peritibial tumors; settings: BrdU positive nuclei / total nuclei x 100; PEGPH20 4.5 mg/kg at 0 and 66 h; gemcitabine 240 mg/kg ip at 24 h; 72 h; control 12.5 ± 4.28
# BxPC-3 peritibial tumors [4] = experiment: Vascular perfusion (DiI), PEGPH20 and gemcitabine study in BxPC-3 peritibial tumors; settings: PEGPH20 4.5 mg/kg at 0 and 66 h; gemcitabine 240 mg/kg ip 24 h after first PEGPH20; 72 h; control 2.89±1.92%
# [5] = system: hypoxic and normoxic cells in culture; settings: cited from earlier work
# hypoxic cells [6] = settings: cited from earlier work
# hypoxic cells [7] = settings: cited from earlier work; remark: listed apart in the source
# hypoxic cells [8] = settings: cited from earlier work; remark: listed apart in the source
molecule,measurement,setting,value
CC(OC(=O)N(N(CCCl)S(C)(=O)=O)S(C)(=O)=O)c1ccc([N+](=O)[O-])cc1 (stereo not drawn),solubility in aqueous solution,[1],rather insoluble in aqueous solution
Cn1c(COP(=O)(NCCBr)NCCBr)cnc1[N+](=O)[O-],improved potency compared to TH-281,cancer cell lines,10 fold
Nc1ccn([C@@H]2O[C@H](CO)[C@@H](O)C2(F)F)c(=O)n1,mean percent hypoxic area in whole tumor section,BxPC-3 peritibial tumors [2],5.32±5.31%
same,"Anti-Tumor Activity (Proliferation Index), Mean ± SD",BxPC-3 peritibial tumors [3],8.37 ± 3.02
same,"mean area of patent, perfusable tumor blood vessels",BxPC-3 peritibial tumors [4],2.72±1.83%
Nc1n[n+]([O-])c2ccccc2[n+]1[O-],fold more toxic to hypoxic than to normoxic cells,[5],50-200 fold
"[Co(III)(3-methyl-2,4-pentanedionato)2(N,N-bis(2-chloroethyeethylenediamine)]^+",hypoxia specific cytotoxicity,hypoxic cells [6],20-25
CO[C@@]12C(COC(N)=O)C3=C(C(=O)C(C)=C(N)C3=O)N1C[C@@H]1N[C@@H]12 (stereo partly drawn),hypoxic cytotoxicity ratio,hypoxic cells [7],1 to 5
NC(=O)c1cc(N(CCCl)CCCl)c([N+](=O)[O-])cc1[N+](=O)[O-],increased hypoxic-specific toxicity compared to CB1954,hypoxic cells [8],about 3.6 fold
